This passage reports decrease in migration speed of OSCC (SCC25) cells on fibronectin-coated dishes in the presence of DisBa-01 (1 or 2 μM, in the media or in the substrate) and fold affinity against α5β1 integrin results from paper PMC5402964.

The chains behind the UniProt entries cited, without tags or fusion partners. Where a name states a change or a piece, a line headed by the entry shows the natural chain unless it says otherwise.
UniProt P06756: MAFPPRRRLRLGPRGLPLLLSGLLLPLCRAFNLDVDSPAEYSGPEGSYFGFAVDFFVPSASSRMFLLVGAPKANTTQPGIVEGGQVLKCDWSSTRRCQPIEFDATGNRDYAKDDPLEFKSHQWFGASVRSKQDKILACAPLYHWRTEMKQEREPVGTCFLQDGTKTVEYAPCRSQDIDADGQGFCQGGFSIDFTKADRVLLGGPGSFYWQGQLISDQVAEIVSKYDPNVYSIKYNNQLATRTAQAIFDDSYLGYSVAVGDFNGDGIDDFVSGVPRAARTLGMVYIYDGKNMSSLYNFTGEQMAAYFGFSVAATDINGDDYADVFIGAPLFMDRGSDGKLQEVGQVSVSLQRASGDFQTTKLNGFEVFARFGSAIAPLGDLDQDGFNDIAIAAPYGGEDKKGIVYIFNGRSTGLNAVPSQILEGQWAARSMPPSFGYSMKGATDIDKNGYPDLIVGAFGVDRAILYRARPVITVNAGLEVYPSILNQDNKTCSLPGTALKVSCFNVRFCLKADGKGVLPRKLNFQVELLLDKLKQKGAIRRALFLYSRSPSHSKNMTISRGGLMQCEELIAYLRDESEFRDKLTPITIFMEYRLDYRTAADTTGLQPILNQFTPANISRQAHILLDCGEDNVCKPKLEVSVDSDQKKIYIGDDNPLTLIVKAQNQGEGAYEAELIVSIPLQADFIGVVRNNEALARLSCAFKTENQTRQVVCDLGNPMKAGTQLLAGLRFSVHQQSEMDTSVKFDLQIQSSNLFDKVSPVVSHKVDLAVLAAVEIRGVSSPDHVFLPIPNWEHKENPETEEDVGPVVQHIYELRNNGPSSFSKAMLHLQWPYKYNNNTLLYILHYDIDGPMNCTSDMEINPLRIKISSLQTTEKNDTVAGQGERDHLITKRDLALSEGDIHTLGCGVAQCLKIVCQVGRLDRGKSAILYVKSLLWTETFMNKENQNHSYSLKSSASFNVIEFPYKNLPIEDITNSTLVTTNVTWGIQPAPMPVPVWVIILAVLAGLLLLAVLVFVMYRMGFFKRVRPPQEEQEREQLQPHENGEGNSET

The target of assay [1] is αVβ3 integrin (UniProt P06756).
The target of assay [2] is αVβ3 integrin (UniProt P06756). Description: SPR; BIAcore T200; integrins amine-coupled to a CM5 chip (α5β1 at pH 4.5, 4,325.2 RU; αVβ3 at pH 4.0, 6,677.1 RU); DisBa-01 0.1-100 μM injected; HBS-EP (0.01 M Hepes pH 7.4, 0.15 M NaCl, 0.005 (v/v) Surfactant P20), 25°C, 30 μL/min; DisBa-01 assumed monomeric, MR 12,000 Da. A general note: SPR reads the build-up and loss of mass on a sensor chip optically.

For “DisBa-01 (disintegrin of Bothrops alternatus), recombinant His-tag protein (natural protein)”, the decrease in migration speed of OSCC (SCC25) cells on fibronectin-coated dishes in the presence of DisBa-01 (1 or 2 μM, in the media or in the substrate) in assay [1] was 40%. Besides, the fold affinity against α5β1 integrin in assay [2] came to 100 fold.
